Experimental data reported in patent US20220388992A1, “JAK INHIBITOR COMPOUND AND USE THEREOF” (priority 2019, published 2022).

Target: T1, TYK2 (Homo sapiens, UniProt P29597)
T1 sequence (P29597 871-1187 limits assumed): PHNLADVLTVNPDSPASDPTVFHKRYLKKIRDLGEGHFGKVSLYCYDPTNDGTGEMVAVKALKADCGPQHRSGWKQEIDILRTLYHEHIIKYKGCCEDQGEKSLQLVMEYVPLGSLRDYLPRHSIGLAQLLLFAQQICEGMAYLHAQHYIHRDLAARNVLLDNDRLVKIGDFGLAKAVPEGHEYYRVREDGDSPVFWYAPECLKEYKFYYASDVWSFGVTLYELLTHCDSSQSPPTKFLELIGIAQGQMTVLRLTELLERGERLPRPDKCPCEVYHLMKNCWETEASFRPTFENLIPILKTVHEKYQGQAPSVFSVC
Experiment: TYK2 kinase inhibition, ADP-Glo luminescence assay
Format: biochemical
Description: A drug screening system based on kinases JAK1, JAK2, JAK3, and TYK2 was used to detect the inhibitory ability of small molecule compounds on kinase activity. A kinase undergoes an enzymatic reaction with its substrates IRS 1, IGF1Rtide, and Poly (4:1 Glu, Tyr), consuming ATP to produce ADP, wherein the ADP-Glo reagent and luminescence method were used to detect the amount of the product to reflect the activity of the kinase. 2.1 Experimental Materials and Instruments
a) Dilute a compound solution to be tested by 5 times with 100% DMSO. […] The final concentration of DMSO is 0.5%. d) Transfer 4 μL of ADP-Glo to the 384-well reaction plate, centrifuge it at 1000 rpm/min for 1 min, and incubate it at 25° C. for 40 min. e) Transfer 8 μL of Detection solution to the 384-well reaction plate, centrifuge it at 1000 rpm/min for 1 min, and incubate it at 25° C. for 40 min. f) Use Biotek multi-function plate reader to read the RLU (Relative luminescence unit) signal. The signal intensity is used to characterize the degree of kinase activity.
IC50 (half inhibitory concentration) of the compound can be obtained using the following nonlinear fitting formula:
Y=Bottom+(Top−Bottom)/(1+10^((Log IC50−X)*HillSlope))

O=C(Nc1nc2cccc(-c3ccc(CN4CCS(=O)(=O)CC4)cc3)n2n1)C1CC1 [Filgotinib, reference compound]
IC50: 293 nM
